Results published in the Kinase Knowledgebase extract (Sharma et al. 2016).

Sequences of proteins named here, by UniProt entry; tags and fusion partners are left off.
UniProt P00533, whole entry, looked up: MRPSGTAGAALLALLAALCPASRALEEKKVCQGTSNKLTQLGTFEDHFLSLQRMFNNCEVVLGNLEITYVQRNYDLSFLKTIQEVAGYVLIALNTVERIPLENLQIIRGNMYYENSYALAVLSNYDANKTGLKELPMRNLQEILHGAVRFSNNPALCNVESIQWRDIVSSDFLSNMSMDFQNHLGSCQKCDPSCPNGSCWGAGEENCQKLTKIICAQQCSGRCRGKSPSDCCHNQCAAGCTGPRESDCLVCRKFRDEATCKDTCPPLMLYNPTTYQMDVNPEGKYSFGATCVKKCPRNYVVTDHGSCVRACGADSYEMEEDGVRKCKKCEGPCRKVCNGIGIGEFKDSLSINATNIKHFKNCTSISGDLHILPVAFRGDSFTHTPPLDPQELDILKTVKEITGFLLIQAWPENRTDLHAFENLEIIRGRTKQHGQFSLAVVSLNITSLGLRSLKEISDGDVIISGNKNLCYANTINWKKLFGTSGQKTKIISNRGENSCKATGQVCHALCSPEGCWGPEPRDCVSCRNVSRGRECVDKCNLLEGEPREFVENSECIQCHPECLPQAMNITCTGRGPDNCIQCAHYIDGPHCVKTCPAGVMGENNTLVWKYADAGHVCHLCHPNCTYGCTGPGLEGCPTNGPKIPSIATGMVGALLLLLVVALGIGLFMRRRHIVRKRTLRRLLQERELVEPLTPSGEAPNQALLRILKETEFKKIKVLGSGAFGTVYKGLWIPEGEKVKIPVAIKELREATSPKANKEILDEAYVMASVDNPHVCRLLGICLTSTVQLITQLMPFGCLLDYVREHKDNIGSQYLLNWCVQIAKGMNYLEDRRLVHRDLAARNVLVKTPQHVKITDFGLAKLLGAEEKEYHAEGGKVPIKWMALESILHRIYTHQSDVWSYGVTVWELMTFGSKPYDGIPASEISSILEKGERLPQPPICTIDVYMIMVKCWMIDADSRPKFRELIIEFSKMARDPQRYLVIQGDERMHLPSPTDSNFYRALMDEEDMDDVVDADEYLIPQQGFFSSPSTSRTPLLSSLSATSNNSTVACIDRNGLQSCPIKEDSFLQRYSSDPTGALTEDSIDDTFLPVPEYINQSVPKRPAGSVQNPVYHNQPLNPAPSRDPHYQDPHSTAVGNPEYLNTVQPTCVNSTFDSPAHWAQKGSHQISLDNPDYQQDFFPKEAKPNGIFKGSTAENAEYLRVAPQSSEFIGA

Molecular target: EGFR (human) (UniProt P00533)
Details: huvec

## COc1cc2c(Nc3ccc(Cl)cc3F)ncnc2cc1OCCCN1CCOCC1
  IC50: 200 nM

## COc1cc2c(Nc3ccc(Br)cc3F)ncnc2cc1OCCC1CCNCC1
  IC50: 80 nM
